From patent US8986722B2, “Pest control composition” (priority 2010, dated 2015)

Assay: HLB of polyglycerol fatty acid ester, Griffin formula 20(1−S/A)
Assay type: physicochemical
Conditions: from saponification and acid values
Excerpt: The HLB (Hydrophile-Lipophile Balance) is an index indicating degrees of hydrophilic properties and lipophilic properties of a surfactant and being shown by a numerical value of 0 to 20. […] Therefore, a surfactant having a low HLB is apt to adapt to a hydrophobic system and a surfactant having a high HLB is apt to adapt to a hydrophilic system.
As the HLB value of said polyglycerol fatty acid ester, a numerical value derived from the following calculation method which is an empirical formula by Griffin is applied. In this regard, as the below-described saponification and acid values, values analyzed in accordance with general test procedures of standards for food additives and standards of quasi-drug ingredients are used. HLB value=20(1−S/A)
S: Saponification value for an ester of a surfactant.
A: Acid value of a fatty acid constituting a surfactant.

Question: With decaglycerol erucic acid ester as the substance, how does the HLB read?
Answer: about 3.5
